From ChEMBL document CHEMBL1132796, “Multistep solution-phase parallel synthesis of spiperone analogues” (Bioorg Med Chem Lett, 2000) come the findings set out here.

The chains behind the UniProt entries cited, without tags or fusion partners.
UniProt P28223, whole entry: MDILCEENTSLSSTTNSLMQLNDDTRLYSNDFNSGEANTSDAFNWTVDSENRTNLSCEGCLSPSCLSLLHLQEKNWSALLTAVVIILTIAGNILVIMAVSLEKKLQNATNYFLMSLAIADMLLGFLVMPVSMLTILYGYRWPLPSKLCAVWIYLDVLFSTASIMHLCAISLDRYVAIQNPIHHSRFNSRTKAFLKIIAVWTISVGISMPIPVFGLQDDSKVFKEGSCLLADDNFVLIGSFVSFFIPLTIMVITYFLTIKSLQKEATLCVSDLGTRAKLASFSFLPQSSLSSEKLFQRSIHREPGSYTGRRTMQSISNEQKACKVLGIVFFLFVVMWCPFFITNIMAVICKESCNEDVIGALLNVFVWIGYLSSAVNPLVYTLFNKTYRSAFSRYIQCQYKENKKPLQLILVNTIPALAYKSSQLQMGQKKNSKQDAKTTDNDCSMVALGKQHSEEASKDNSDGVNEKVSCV

Molecules are shown by their SMILES.

The target in the experiment is 5-hydroxytryptamine receptor 2A (Homo sapiens, UniProt P28223). Briefly: Compound was evaluated for its inverse agonist activity against 5-hydroxytryptamine 2A receptor. Format: functional.

For the compound `O=C1NCN(c2ccccc2)C12CCN(CCCOc1ccc(F)cc1)CC2` [SPIRAMIDE], the IC50 – broadly, the concentration that gives 50% inhibition – is 0.316 nM.
